Measurements: patent US6372183B1 (priority 1991, dated 2002)

Amino acid sequences for entries named in this document (tags omitted).
UniProt Q01668, whole entry: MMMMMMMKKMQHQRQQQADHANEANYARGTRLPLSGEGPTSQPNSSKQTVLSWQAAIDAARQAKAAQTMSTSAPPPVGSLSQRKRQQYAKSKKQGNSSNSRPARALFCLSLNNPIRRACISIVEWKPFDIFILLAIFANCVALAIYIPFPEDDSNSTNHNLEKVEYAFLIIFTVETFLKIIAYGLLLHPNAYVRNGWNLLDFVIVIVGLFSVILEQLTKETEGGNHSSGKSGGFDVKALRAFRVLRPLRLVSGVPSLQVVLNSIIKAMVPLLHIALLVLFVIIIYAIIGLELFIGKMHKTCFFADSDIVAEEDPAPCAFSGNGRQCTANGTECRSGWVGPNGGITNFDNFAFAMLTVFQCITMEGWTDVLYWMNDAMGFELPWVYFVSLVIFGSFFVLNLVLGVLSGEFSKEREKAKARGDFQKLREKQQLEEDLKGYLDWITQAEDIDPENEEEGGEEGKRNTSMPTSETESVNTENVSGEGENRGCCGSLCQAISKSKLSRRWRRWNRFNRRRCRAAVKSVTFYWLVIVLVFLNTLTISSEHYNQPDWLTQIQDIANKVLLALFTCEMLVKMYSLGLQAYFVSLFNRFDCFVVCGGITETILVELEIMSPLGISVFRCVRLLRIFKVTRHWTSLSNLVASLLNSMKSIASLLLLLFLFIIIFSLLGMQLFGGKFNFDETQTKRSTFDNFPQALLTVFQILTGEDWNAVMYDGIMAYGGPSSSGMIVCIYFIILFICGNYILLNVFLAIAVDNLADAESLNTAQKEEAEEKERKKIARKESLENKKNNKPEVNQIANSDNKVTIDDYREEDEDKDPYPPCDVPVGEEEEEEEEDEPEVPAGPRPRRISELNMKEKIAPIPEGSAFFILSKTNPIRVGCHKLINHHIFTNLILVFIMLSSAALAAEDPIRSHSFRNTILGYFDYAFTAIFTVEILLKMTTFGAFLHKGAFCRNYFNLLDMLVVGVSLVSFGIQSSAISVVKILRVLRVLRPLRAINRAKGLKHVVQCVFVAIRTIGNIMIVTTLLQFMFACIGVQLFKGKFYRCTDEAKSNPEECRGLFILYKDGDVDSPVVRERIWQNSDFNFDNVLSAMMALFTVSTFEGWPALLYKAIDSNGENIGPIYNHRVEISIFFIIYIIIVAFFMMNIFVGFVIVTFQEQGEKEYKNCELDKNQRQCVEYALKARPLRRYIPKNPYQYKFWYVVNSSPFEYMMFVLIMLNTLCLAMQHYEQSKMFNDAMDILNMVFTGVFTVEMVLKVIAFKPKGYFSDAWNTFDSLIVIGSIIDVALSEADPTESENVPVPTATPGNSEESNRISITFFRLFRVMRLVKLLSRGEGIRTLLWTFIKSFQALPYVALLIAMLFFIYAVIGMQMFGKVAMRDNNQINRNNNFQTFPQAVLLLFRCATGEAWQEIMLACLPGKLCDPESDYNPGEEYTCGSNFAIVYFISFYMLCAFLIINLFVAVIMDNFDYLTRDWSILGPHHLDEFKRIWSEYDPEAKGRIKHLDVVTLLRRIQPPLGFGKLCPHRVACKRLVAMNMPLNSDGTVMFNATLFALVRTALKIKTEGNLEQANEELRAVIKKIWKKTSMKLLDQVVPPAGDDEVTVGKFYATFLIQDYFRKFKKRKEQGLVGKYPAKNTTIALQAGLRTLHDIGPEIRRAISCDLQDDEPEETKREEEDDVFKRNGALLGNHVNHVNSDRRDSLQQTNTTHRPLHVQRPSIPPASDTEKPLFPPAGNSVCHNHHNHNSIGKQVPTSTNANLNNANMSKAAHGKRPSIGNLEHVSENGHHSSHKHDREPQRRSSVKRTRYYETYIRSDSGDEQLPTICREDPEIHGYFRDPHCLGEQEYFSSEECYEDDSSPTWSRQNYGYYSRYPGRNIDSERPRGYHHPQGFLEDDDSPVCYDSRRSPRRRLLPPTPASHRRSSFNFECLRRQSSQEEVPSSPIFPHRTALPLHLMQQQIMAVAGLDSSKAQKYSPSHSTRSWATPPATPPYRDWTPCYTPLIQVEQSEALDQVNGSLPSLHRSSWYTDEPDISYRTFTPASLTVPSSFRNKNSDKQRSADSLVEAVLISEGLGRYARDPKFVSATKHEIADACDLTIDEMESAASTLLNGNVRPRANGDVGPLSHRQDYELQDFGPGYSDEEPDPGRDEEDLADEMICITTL

Biological target: human neuronal calcium channel α1D, α2 and β subunits (Homo sapiens, UniProt Q01668)
Details: 13old cells, 50 mM KCl, estimated from dose-response curve

Substance | IC50 (read-out: IC50 for inhibition of the fluorescence response to KCl) | EC50 (read-out: EC50 for the potentiation of fluorescence response to KCl)
cadmium | 3000 nM | –
Bay K 8644 [BayK 8644] | – | 4.4 nM
